What is called Kd is the equilibrium constant for the complex coming apart.

Data on 1 compound can be found in patent US9884122B2, “Small molecule drug conjugates” (Philochem AG, priority 2014, dated 2018).

This assay addresses CAIX (Homo sapiens, UniProt Q16790). The assay can be described thus: Binding performance by surface plasmon resonance (B1, B2). Particulars: SPR. The text has this: Binding experiments of monovalent and bivalent AAZ derivatives to CAIX using surface plasmon resonance indicated a fast association for both compounds (ka=1.48×10^6 M^−1 s^−1 and ka1=1.28×10^6 M^−1 s^−1, ka2=1.36×10^6 RU^−1 respectively).
In general terms: SPR reads the build-up and loss of mass on a sensor chip optically.

For the compound `NCCOCCOCCNC(=O)CCCCn1cc(CCCC(=O)Nc2nnc(S(N)(=O)=O)s2)nn1`, the dissociation constant (Kd) was 10.5 nM, the “dissociation from the CAIX-coated surface (in words)” value is “completely dissociated from the CAIX-coated surface within seconds” and the kd came out at 0.015 s⁻¹. Where the note is “monovalent”, this compound had a ka of 1.48e+06 M⁻¹ s⁻¹.
